Measured values from PMC6380069, “H2S suppresses indoleamine 2, 3-dioxygenase 1 and exhibits immunotherapeutic efficacy in murine hepatocellular carcinoma” (Journal of Experimental & Clinical Cancer Research : CR, 2019).

Amino acid sequences for entries named in this document (tags omitted).
UniProt P14902, whole entry: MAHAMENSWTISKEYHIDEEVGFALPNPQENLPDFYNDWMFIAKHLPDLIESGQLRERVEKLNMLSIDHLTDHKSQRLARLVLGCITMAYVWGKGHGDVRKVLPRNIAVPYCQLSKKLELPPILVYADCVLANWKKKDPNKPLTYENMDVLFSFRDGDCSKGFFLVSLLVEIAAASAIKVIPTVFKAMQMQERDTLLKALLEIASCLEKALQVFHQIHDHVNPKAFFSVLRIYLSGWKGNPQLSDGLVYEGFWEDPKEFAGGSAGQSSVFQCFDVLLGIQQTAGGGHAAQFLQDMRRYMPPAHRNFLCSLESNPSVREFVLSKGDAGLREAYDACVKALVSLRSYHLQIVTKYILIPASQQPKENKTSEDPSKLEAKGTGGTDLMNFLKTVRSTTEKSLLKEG

Biological target: T1, indoleamine 2, 3-dioxygenase 1 (rhIDO1) (Homo sapiens, UniProt P14902)
T1 construct: gene IDO1

For `[N]=O` [nitric oxide], which “in-vitro enzymatic assay with purified rhIDO1; NO delivered by the donor sodium” value is on record?
The value was “Combined data demonstrated that NO rather than H2S was a direct inhibitor of IDO1”.
